Test: Physical/chemical properties of XTR5

## CCCCOCC(C)OC(=O)OC(C)COCCCC (centres unmarked) [XTR5, bis(1-butoxypropan-2-yl) carbonate]
  Lower Explosive Limit (LEL %): 0.40%
  Upper Explosive Limit (UEL %): 7.04%

— US11708500B2, “Solvent compounds for use as coalescents” (TBF ENVIRONMENTAL TECHNOLOGY INC., priority 2017, dated 2023)
